From US10975037B2 (priority 2018, dated 2021)

Sequences of proteins named here, by UniProt entry; tags and fusion partners are left off. A line that says so, or that is headed by a name, gives the form on record, which may keep a tag or linker.
UniProt P51449, other isoform, or with tags, fused parts or gaps: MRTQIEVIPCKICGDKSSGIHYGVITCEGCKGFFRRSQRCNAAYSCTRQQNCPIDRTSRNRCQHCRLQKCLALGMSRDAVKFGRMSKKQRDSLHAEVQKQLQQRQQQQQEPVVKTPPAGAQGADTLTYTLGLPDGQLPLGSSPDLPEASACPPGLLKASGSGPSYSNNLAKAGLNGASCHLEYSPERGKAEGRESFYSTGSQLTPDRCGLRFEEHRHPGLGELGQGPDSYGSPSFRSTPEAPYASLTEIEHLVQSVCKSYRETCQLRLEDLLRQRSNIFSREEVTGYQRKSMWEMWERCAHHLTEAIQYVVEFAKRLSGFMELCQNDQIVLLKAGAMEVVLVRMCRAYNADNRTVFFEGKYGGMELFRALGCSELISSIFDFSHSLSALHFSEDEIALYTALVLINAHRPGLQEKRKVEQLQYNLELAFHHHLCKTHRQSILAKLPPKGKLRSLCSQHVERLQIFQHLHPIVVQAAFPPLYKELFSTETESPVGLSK

Each compound was assayed against full-length human RORγt (Homo sapiens (Human), UniProt P51449) (assay: RORγt (full-length human) reporter assay, conditions A or B, HEK293T cells). Conditions: HEK-293T; 3 μM compound concentration (footnote *); read-out: RORγt (FL) Reporter Assay A or B, % inhibition.
Assay type: cell-based
Procedure: RORγt (Full-Length Human) Reporter Assay:
(§1) HEK293T cells were plated at 35,000 per well in 96-well plate in medium of DMEM with 10% FBS. […] After overnight (16 to 20 hours) incubation, media were removed and cells were lysed with 50 L Glo Lysis Buffer (Promega) for 10-15 minutes followed by 10 minute incubation with 50 μL Dual Glo reagent (Promega) at room temperature. Firefly luciferase luminescence was measured using a BMG Pherastar plate reader. To each well, 50 μL Stop and Glo reagent was added and incubated for 10 minutes at room temperature. Renilla luminescence was measured using a BMG Pherastar plate reader. To calculate the effect of compounds on RORγt activity, firefly values were normalized against values of DMSO only and values of reference compound at saturating concentration, then further normalized against Renilla signals. IC50s were generated by plotting final Renilla normalized data against compound concentration and percent inhibition was calculated against DMSO control.
as §1, with “at 8750 cells” for “at 35,000”, “in 384-well” for “in 96-well”, “with 20” for “with 50”, “well, 20” for “well, 50”

Row | inhibition at 3 µM | SMILES
1 | 106% | CCn1nc(C(=O)NC[C@@H]2CC[C@@H](S(C)(=O)=O)CN2C(C)=O)c(Cl)c1-c1ccc(CC(C)(C)C(F)(F)F)cc1OC(F)F (stereo in doubt) [Example 65, N-(((2S*,5R*)-1-Acetyl-5-(methylsulfonyl)piperidin-2-yl)methyl)-4-chloro-5-(2-(difluoromethoxy)-4-(3,3,3-trifluoro-2,2-dimethylpropyl)phenyl)-1-ethyl-1H-pyrazole-3-carboxamide]
2 | 89% | CCn1nc(C(=O)NC[C@H]2CC[C@H](S(C)(=O)=O)CN2C(C)=O)c(Cl)c1-c1ccc(CC(C)(C)C(F)(F)F)cc1OC(F)F (stereo in doubt) [Example 66, N-(((2R*,5S*)-1-Acetyl-5-(methylsulfonyl)piperidin-2-yl)methyl)-4-chloro-5-(2-(difluoromethoxy)-4-(3,3,3-trifluoro-2,2-dimethylpropyl)phenyl)-1-ethyl-1H-pyrazole-3-carboxamide]
3 | 108% | Cc1c(C(=O)NC[C@H]2CC[C@H](S(C)(=O)=O)CC2)nn(CC(C)(C)O)c1-c1ccc(CC(C)(C)C(F)(F)F)cc1OC(F)F [Example 147, 5-(2-(Difluoromethoxy)-4-(3,3,3-trifluoro-2,2-dimethylpropyl)phenyl)-1-(2-hydroxy-2-methylpropyl)-4-methyl-N-(((1r,4r)-4-(methylsulfonyl)cyclohexyl)methyl)-1H-pyrazole-3-carboxamide]
